CCCc1nn(C)c2c(=O)[nH]c(-c3cc(S(=O)(=O)N4CCN(C)CC4)ccc3OCC)nc12.O=C(O)CC(O)(CC(=O)O)C(=O)O
solubility (mole fraction)
Conditions | 293.2 K | 298.2 K | 303.2 K | 308.2 K | 313.2 K
in ethanol | 7.93e-05 | 0.000103 | 0.000122 | 0.000164 | 0.000226
in propylene glycol | 0.000297 | 0.000456 | 0.000619 | 0.000748 | 0.000934

— BigSolDB 2.1
